Data reported in patent US12331052B2, “Organic compounds” (INTRA-CELLULAR THERAPIES, INC., priority 2018, dated 2025).

Chains of the proteins cited; added tags and fusions are not shown.
UniProt P31645, whole entry, looked up: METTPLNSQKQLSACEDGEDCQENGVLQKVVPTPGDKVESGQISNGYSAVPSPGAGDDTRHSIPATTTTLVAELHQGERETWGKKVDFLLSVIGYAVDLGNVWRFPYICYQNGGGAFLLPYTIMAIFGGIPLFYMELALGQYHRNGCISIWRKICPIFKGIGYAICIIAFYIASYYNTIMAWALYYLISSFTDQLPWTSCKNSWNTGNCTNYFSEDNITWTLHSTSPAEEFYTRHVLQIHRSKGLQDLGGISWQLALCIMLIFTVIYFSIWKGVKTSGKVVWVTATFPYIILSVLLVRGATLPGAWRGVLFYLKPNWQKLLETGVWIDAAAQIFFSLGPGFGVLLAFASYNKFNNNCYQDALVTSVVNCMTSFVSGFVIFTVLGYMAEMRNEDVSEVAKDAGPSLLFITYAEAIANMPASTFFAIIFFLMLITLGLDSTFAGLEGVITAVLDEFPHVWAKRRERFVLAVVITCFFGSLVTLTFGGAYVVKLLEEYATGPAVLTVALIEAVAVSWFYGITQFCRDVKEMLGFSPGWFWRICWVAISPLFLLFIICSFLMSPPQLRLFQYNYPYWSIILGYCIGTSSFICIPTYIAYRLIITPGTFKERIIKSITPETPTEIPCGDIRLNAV

Tests used:
[1] = biological target: SERT (Homo sapiens, UniProt P31645); test: Receptor binding, SERT; conditions: @ 200 nM
[2] = system: male C57BL/6J mice; test: Oxycodone-dependent withdrawal study in mice; assay type: in vivo; conditions: (1) Oxycodone; (2) Compound 3.0 mg/kg, (3) Naloxone 3 mg/kg
[3] = system: C57 mice; test: Formalin paw test (inflammatory pain model); assay type: in vivo; conditions: SC 1.0 mg/kg; 0-10 min
[4] = system: recombinant human MOP-beta-arresting signaling pathway; conditions: read-out: EC50 (stimulation of beta-arrestin signaling)

In the case of `O=c1[nH]c2cccc3c2n1[C@H]1CCN(CCCOc2ccc(F)cc2)C[C@@H]31`, the maximum inhibition [1] is reported as 0% @.

In the case of `O=C1CN2c3c(cccc3[C@@H]3CN(CCCOc4ccc(F)cc4)CC[C@@H]32)N1` [Example 1, (6bR,10aS)-8-(3-(4-fluorophenoxy)propyl)-6b,7,8,9,10,10a-hexahydro-1H-pyrido[3′,4′:4,5]pyrrolo[1,2,3-de]quinoxalin-2(3H)-one], the “Paw Tremors” value [2] is reported as 0.5 and the “Mean Behavior Rating (0-4)” value [3] is reported as 1.3.

Work on Met-enkephalin yielded an EC50 [4] of 80 nM.
